For assay [1], the system named is BALB/c mice. Kind of assay: Rosacea model: intradermal LL-37 in mice, erythema score. The note with it: once daily, score 0-4, mean ± SEM. The source says: (§1) Experimental animals: BALB/c mice, from Guangdong Vital River Laboratory Animal Technology Co., Ltd.
The hair on the back of the mice was shaved, and the modeling area was marked on the back skin, avoiding positions with abundant subcutaneous blood vessels. LL-37 (an antimicrobial peptide used for rosacea modeling) (Supplier: QYAOBlO (ChinaPeptides), Lot No.: 20240319) solution was drawn with a microsyringe and injected intradermally along the intradermal path. The needle was withdrawn slowly after injection. The modeling continued for 5 to 7 days, with injections administered twice a day.
Administration was initiated on the day of grouping, which was designated as D1, and was performed once daily for 7 consecutive days. The normal control group and the model control group were administered with vehicle alone under the same conditions. The changes in skin lesions at the injection site on the back of mice in each group were observed, and scores ranging from 0 to 4 were assigned based on the degree of erythema, wherein, a score of 0 indicates no erythema, a score of 1 indicates barely visible erythema, a score of 2 indicates pale erythema with blurred boundaries, a score of 3 indicates erythema with clear boundaries, and a score of 4 indicates dark erythema with clear boundaries. The administration regimen for the mouse rosacea model was as follows: […]

The test system of assay [2] is BALB/c mice. Briefly: Allergic rhinitis model: OVA sensitization and nasal challenge, number of sneezes. The note with it: 5mg/kg p.o. once daily, within 10 min after the nasal challenge. How it is done: as §1
(§2) Modeling was initiated on the day of grouping, which was designated as M1. Except for the normal group, mice in all modeling groups were intraperitoneally injected with a sensitization solution of (250 µg OVA (Ovalbumin) (Supplier: Shanghai Macklin, Lot No.: C16255388) mixed with 5 mg aluminum hydroxide/mL) per mouse, while the normal control group was given an equal volume of sterile PBS solution. The injection cycle was M1, M7, and M14. Starting from M21, challenge was carried out by nasal instillation once daily for 7 consecutive days. The challenge solution was a 50 mg/mL OVA solution, and a volume of 10 µL was instilled into each nostril per time. The normal control group was not subjected to nasal instillation.
(§3) Administration was initiated on the day of the challenge by nasal instillation, which was designated as D1, and was performed once daily for 7 consecutive days. The normal control group and the model control group were administered with vehicle alone under the same conditions:
The number of sneezes in each group was recorded within 10 min after the nasal challenge every day during the administration period.

Assay [3] has as its system BALB/c mice. Briefly: Allergic rhinitis model: IgE assay (ELISA) in peripheral blood, nasal lavage fluid and tracheal tissue. The note with it: mean ± spread. The protocol: as §1, §2, §3
Prior to necropsy, blood was collected from the eyeball. The collected mouse blood was then centrifuged at 1800 r/min at 4 °C for 15 min, and the supernatant serum was aliquoted and stored at -80 °C for testing. At the same time, nasal lavage fluid and tracheal tissues were collected. The IgE levels in the above three samples was detected using an ELISA method (Supplier: Shanghai Enzyme-linked Biotechnology Co., Ltd., Lot No.: ml1037602).
(In general: An ELISA detects its analyte on a solid surface through an enzyme-linked reagent.)

Turning to `COc1c(-c2ccc(S(=O)(=O)N3CC(F)(F)C3)cc2)c(F)cc2c(=O)c(C(=O)O)cn(C3CC3)c12`, the erythema score with BALB/c mice [1] (D1, 4mg/g Topical application) came to 1.6±0.3; with BALB/c mice [1] (D1, 40mg/kg Oral) it was 1.6±0.2; in the assay with BALB/c mice [1] (D2, 4mg/g Topical application), 2.7±0.2; in the assay on BALB/c mice [1] (D6, 4mg/g Topical application), 1.6±0.3; in the assay with BALB/c mice [1] (D6, 40mg/kg Oral), 1.6±0.2; with BALB/c mice [1] (D7, 4mg/g Topical application), 1.5±0.3. This compound showed an erythema score in the assay with BALB/c mice [1] (D7, 40mg/kg Oral) of 1.5±0.3. The number of sneezes in the assay on BALB/c mice [2] (D1) is reported as 2.0 number of sneezes/mouse; in the assay with BALB/c mice [2] (D2) it was 1.4 number of sneezes/mouse; in the assay with BALB/c mice [2] (D3), 14.6 number of sneezes/mouse; in the assay on BALB/c mice [2] (D4), 7.8 number of sneezes/mouse; in the assay on BALB/c mice [2] (D5), 9.1 number of sneezes/mouse; in the assay with BALB/c mice [2] (D6), 13.0 number of sneezes/mouse. The number of sneezes in the assay on BALB/c mice [2] (D7) is listed as 10.4 number of sneezes/mouse. Besides, the “Nasal Lavage Fluid IgE Concentration” value in the assay on BALB/c mice [3] (nasal lavage fluid) turned out to be 11.0 ± 1.5 ng/mL. Moreover, the “Peripheral Blood IgE Concentration” value in the assay on BALB/c mice [3] (serum) amounted to 6.8 ± 1.5 ng/mL. For the same compound, the “Tracheal Tissue IgE Concentration” value in the assay on BALB/c mice [3] (tracheal tissue) was found to be 11.9 ± 2.9 ng/mL.

Values taken from patent EP4834881A1, “QUINOLONE COMPOUNDS AND USE THEREOF” (dated 2026).
